Counter-ions that a name gives are not always drawn.

Sequences of proteins named here, by UniProt entry; tags and fusion partners are left off. A change or cut given only in a name is not applied to a line headed by its entry.
UniProt Q12809: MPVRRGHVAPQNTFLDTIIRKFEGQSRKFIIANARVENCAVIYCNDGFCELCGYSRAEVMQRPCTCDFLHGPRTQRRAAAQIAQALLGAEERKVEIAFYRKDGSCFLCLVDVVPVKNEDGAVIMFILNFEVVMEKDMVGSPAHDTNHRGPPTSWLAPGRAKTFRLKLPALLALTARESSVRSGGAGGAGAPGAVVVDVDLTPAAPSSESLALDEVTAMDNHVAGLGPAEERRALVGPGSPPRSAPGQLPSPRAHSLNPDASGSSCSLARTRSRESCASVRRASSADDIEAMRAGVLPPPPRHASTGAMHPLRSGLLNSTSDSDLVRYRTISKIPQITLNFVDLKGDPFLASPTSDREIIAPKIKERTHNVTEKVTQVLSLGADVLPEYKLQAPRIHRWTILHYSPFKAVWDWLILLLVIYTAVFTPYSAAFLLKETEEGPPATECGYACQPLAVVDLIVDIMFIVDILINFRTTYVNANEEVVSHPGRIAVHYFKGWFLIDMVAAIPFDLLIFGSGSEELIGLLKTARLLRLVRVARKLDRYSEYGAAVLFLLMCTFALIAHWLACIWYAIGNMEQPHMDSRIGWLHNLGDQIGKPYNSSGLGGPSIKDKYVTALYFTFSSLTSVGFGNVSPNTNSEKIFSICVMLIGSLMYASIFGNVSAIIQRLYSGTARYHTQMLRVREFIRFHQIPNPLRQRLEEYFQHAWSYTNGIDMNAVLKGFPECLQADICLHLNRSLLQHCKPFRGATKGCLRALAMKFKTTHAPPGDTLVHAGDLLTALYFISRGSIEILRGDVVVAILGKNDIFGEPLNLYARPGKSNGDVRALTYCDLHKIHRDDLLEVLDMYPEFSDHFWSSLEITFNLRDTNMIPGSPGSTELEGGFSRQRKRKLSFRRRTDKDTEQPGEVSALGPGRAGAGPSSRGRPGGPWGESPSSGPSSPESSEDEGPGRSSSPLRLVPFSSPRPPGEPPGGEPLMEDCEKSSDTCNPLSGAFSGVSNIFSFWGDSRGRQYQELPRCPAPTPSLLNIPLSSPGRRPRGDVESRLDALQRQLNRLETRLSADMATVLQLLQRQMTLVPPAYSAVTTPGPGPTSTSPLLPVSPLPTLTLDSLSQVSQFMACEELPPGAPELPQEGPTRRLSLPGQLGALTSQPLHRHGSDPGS

This test deals with Voltage-gated inwardly rectifying potassium channel KCNH2 (Homo sapiens, UniProt Q12809).
For the compound `CN1CCN(CCCCN2C(=O)CN(/N=C/c3ccc(-c4ccc(Cl)cc4)o3)C2=O)CC1` [AZIMILIDE], the 50% inhibitory concentration (IC50) is 1410 nM.
Next, `CNCCCN1c2ccccc2CCc2ccccc21` [DESIPRAMINE]: 1510 nM; `OC(c1cc(C(F)(F)F)nc2c(C(F)(F)F)cccc12)C1CCCCN1` (stereo not given) [MEFLOQUINE HYDROCHLORIDE]: 5620 nM.
Then `CN1CCCCC1CCN1c2ccccc2Sc2ccc([S+](C)[O-])cc21` (stereo not given) [MESORIDAZINE], with 324 nM; and `C1CCC(C(CC2CCCCN2)C2CCCCC2)CC1` (stereo not given) [PERHEXILINE], with 7760 nM.

Source of the values: ChEMBL document CHEMBL1136167, “Prediction of hERG potassium channel affinity by traditional and hologram qSAR methods” (Bioorg Med Chem Lett, 2003).
